Laboratory results: PubChem BioAssay AID434959 (Broad Institute, 2010)
Only a part is listed here, and it is no random draw. Some salts or complexes appear as unconnected parts, following the source record. The source made the active and inactive calls.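 The calls were made as follows: active = delta delta Cp rounded down to an integer at or above 3, about 3 SD of DMSO wells; inactive = the rest.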

Test: YB-1 transcript reduction by qRT-PCR – cell-based, fluorescence, primary screen (AID 434959);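 also: higher means less YB-1 transcript or more CDIP transcript relative to DMSO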
Conditions: U2OS, qRT-PCR YB-1 vs CDIP delta delta Cp, 16 h; stronger effect = higher value; zero = DMSO, each unit about twofold
In the case of CN(C(=O)Cc1ccc(Cl)c(Cl)c1)[C@H]1CCCC[C@@H]1N1CCCC1, the delta Cp (YB-1 minus CDIP) is reported as inactive: -0.131. With COc1cc2c(cc1NP(C)(=O)Oc1ccccc1)oc1ccccc12 (stereo unspecified) the delta Cp (YB-1 minus CDIP) was inactive: 0.154. For O=C(OC1CN2CCC1CC2)c1ccc(Cl)cc1 (stereo unspecified), the delta Cp (YB-1 minus CDIP) was inactive: -0.497. In the case of Cc1ccc(C(=O)OC2CN3CCC2CC3)cc1 (stereo unspecified), the delta Cp (YB-1 minus CDIP) is reported as inactive: -0.153. In the case of O=P1(Nc2ccccn2)COc2ccccc2OC1, the delta Cp (YB-1 minus CDIP) is reported as inactive: -0.523. In the case of C/C1=C2N=C(/C=C3N=C(/C(C)=C4\[N-][C@@](C)([C@@H]5N=C1[C@](C)(CCC(=O)NCC(C)OP(=O)(O)O[C@@H]1[C@H](O)[C@H](n6cnc7cc(C)c(C)cc76)O[C@H]1CO)[C@H]5CC(N)=O)[C@@](C)(CC(N)=O)[C@@H]4CCC(N)=O)[C@@](C)(CC(N)=O)[C@@H]\3CCC(N)=O)C(C)(C)[C@@H]/2CCC(N)=O.[C-]#N.[Co+3] (stereo partly specified), the delta Cp (YB-1 minus CDIP) is reported as inactive: -0.0935.
